Tests used:
JIMT-1 tumor cells = test: Effect of ADC-2, ADC-3 and Enhertu in JIMT-1 CDX model in vivo; set-up: species or system mouse; settings: 5 mg/kg
Procedure: Treatments were started on day 10 after tumor inoculation when the average tumor volume reached 200 mm^3. The mean tumor volume of the vehicle control group reached 1,474 mm^3 on day 35 after administration. T/C and TGI values were calculated using tumor volume. The calculation formula is as follows: T/C %=TRTV/CRTV×100% (TRTV: RTV of the treatment group; CRTV: RTV of the vehicle control group). The relative tumor volume (RTV) was calculated based on the results of tumor measurement, and the calculation formula was RTV=Vt/V0, where V0 was the average tumor volume measured at the time of grouping (i.e., D0), Vt was the average tumor volume at one measurement, and TRTV and CRTV took the same day of data. Calculation of TGI (%): TGI (%)=[1−(average tumor volume at the end of administration of a treatment group−average tumor volume at the beginning of administration of the treatment group)/(average tumor volume at the end of treatment of the vehicle control group−the average tumor volume at the beginning of treatment of the vehicle control group)]×100%.

[1] = patients; cited from earlier work

Enhertu
antitumor activity in JIMT-1 model (JIMT-1 tumor cells; FIG. 3): significant antitumor activity
mean tumor volume (JIMT-1 tumor cells; day 35): 494 mm^3
T/C (JIMT-1 tumor cells; day 35 after administration): 33.51%
TGI (JIMT-1 tumor cells; day 35 after administration): 76.90%
interstitial lung disease [1]: more than 10%

From US20260115305A1, “LINKERS, CONJUGATES AND APPLICATIONS THEREOF” (GENEQUANTUM HEALTHCARE (SUZHOU) CO., LTD., priority 2022, published 2026)
